Each structure is given as a SMILES string. Only a part is listed here, and it is no random draw. Some salts and complexes are drawn in separate pieces, as the source files them; their charges need not balance. Active and inactive are the calls of the source.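 The calls were made as follows: active = percent inhibition above the average of all tested compounds plus 3 SD, set per screening campaign (cut at about 16% in these data); inactive = the rest.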

By UniProt entry, the sequences of proteins in these tests, tags left out.
UniProt P14735, whole entry: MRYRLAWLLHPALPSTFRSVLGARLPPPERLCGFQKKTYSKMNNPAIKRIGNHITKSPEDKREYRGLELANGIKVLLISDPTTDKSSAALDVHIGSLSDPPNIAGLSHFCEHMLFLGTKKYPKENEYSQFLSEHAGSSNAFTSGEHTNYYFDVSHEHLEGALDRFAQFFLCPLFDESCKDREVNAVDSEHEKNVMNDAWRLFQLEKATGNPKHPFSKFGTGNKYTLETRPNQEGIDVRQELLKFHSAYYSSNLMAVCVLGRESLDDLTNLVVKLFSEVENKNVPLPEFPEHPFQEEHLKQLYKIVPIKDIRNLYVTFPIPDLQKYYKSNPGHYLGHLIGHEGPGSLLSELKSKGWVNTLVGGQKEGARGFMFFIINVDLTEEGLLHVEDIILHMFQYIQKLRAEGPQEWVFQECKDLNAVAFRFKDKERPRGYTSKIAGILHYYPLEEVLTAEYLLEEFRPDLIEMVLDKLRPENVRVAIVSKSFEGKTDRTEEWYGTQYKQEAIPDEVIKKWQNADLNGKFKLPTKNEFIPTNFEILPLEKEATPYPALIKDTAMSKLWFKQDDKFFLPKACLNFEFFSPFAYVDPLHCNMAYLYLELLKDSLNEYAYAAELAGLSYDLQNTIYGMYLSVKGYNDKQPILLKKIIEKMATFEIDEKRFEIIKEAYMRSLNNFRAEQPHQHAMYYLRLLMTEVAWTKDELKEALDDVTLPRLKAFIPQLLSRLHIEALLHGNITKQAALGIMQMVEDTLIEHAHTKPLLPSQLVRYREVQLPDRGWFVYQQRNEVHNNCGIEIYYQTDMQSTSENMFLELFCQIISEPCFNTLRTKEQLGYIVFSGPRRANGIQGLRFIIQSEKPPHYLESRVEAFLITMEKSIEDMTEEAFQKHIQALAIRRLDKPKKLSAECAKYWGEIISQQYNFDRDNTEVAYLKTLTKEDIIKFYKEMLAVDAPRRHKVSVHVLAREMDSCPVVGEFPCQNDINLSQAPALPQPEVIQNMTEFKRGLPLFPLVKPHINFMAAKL

For this assay, the target named is Insulin-degrading enzyme (Homo sapiens) (UniProt P14735). As to the kind of experiment: cellular IDE Abeta-cleavage inhibition – fluorescence polarization, HEK cells, FAbetaB substrate, primary screen (AID 434962).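 Also: IDE supplied by intact live HEK cells; FP after avidin binding of uncleaved biotin substrate so inhibition keeps polarization high; 0% = DMSO wells and 100% = 60 µM reference IDE inhibitor Ii1.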 The following applies: at 5.59 µM, hits give high values. (In fluorescence polarisation assays a small probe gives low polarisation when free and higher when bound to something large.)
`CCOP(C)(=S)SCC(=O)NC(C)(CC)C(=O)O` (stereo not drawn): the inhibition is inactive: -0.14%.

Regarding `CP(=O)(Nc1ccc(SC(F)(F)F)cc1)Oc1ccc(F)cc1` (stereo not drawn), the inhibition is inactive: -5.03%. Next, `Cc1ccccc1NP(C)(=O)Nc1ccccc1C`: inactive: 1.09%; `CP(=O)(Nc1ccc2c(c1)OCCO2)Oc1ccccc1` (stereo not drawn): inactive: 4.58%; `CN(C)CCOC(=O)C(O)(c1ccccc1)C1CCCCC1` (stereo not drawn): inactive: 4.5%.

As to `COc1ccc(NP(C)(=O)Oc2ccccc2OC)cc1` (stereo not drawn), the inhibition was inactive: 1.92%. Next, `COc1ccc(OP(C)(=O)Nc2cccc(Br)c2)cc1` (stereo not drawn): inactive: 8.59%. Next, `O=[N+]([O-])c1cc([N+](=O)[O-])c(NCC2CCS(=O)(=O)C2)c([N+](=O)[O-])c1` (stereo not drawn): inactive: 0.57%; `CCOC(=O)c1ccc(NP(C)(=O)Oc2ccc(F)cc2)cc1` (stereo not drawn): inactive: 0.83%; `COc1ccc(OP(C)(=O)Nc2ccc(SC(F)(F)F)cc2)cc1` (stereo not drawn): inactive: -0.01%. Next, `CP(=O)(Nc1ccccc1)Oc1ccc(F)cc1` (stereo not drawn): inactive: 0.04%. Consider `CCCCCOc1ccc(NP(C)(=O)Oc2ccc(Cl)cc2Cl)cc1` (stereo not drawn), for which the inhibition was inactive: 2.78%. Next, `O=[N+]([O-])c1cc([N+](=O)[O-])c(OC2CCCCC2O)c([N+](=O)[O-])c1` (stereo not drawn): inactive: -0.23%; `CCN(CC)CCCOC(=O)C(O)(c1ccccc1)C1CCCCC1` (stereo not drawn): inactive: 3.2%. Next, `CP(=O)(Nc1ccccc1F)Oc1ccccc1` (stereo not drawn): inactive: 2.02%.

As for `CC(C)c1ccc(OP(C)(=O)Nc2ccc(SC(F)(F)F)cc2)cc1` (stereo not drawn), the inhibition is inactive: -1.49%.

For `COc1ccc2c(c1O)-c1c(O)c(OC)cc3c1[C@H](C2)[N+](C)(C)CC3.O=[N+]([O-])c1cc([N+](=O)[O-])c([O-])c([N+](=O)[O-])c1[O-]`, the inhibition was inactive: 1.23%. Next, `O=C(OC1CN2CCC1CC2)c1ccc([N+](=O)[O-])cc1` (stereo not drawn): inactive: -0.99%. Next, `O=C(OCCN1CCN(CCOCc2ccccc2)CC1)C(O)(c1ccccc1)c1ccccc1`: inactive: 3.42%; `COc1ccc(OP(C)(=O)Nc2ccccn2)cc1` (stereo not drawn): inactive: -5.93%; `CN(C)CCOC(=O)C(O)(c1ccccc1)C1CCCC1` (stereo not drawn): inactive: -0.28%.

For the compound `COc1ccccc1OP(C)(=O)Nc1ccc(Br)cc1` (stereo not drawn), the inhibition was inactive: 0.89%.

With `CP(=O)(Nc1ccccn1)Oc1ccccc1` (stereo not drawn), the inhibition is inactive: -0.95%.

Turning to `COc1ccccc1OP(C)(=O)Nc1ccc(C)cc1C` (stereo not drawn), the inhibition was inactive: -2.89%. Next, `CCc1ccc(OP(C)(=O)O)cc1`: inactive: 0.06%; `O=[N+]([O-])c1cc([N+](=O)[O-])c(Nc2ccccn2)c([N+](=O)[O-])c1`: inactive: 3.38%. Next, `Cc1c(NP(C)(=O)Oc2ccc(C(C)C)cc2)c(=O)n(-c2ccccc2)n1C` (stereo not drawn): inactive: -1.69%; `COc1ccccc1OP(C)(=O)Nc1ccc(C)c(C)c1` (stereo not drawn): inactive: 0.58%. Next, `COc1ccc(OP(C)(=O)Nc2ccccc2Br)cc1` (stereo not drawn): inactive: 1.58%; `Cc1cc(C)cc(OP(C)(=O)Nc2cccc(C(F)(F)F)c2)c1` (stereo not drawn): inactive: 0.33%. As for `CP(=O)(OCCOc1ccccc1)OCCOc1ccccc1`, the inhibition was inactive: 8.17%. Next, `CP(=O)(Nc1ccc(Cl)cc1Cl)Oc1ccccc1` (stereo not drawn): inactive: 0.96%; `Cc1nc2ccc3ccccc3c2o1.O=[N+]([O-])c1cc([N+](=O)[O-])c(O)c([N+](=O)[O-])c1`: inactive: 8.65%. Regarding `CCOC(=O)c1ccc(NP(C)(=O)Oc2ccc(Cl)cc2)cc1` (stereo not drawn), the inhibition is inactive: 5.27%. On to `CP(=O)(OC12CC3CC(CC(C3)C1)C2)OC12CC3CC(CC(C3)C1)C2`, for which the inhibition is inactive: -1.43%.

Consider `Nc1ccc2c(ccc3cccnc32)n1.O=[N+]([O-])c1cc([N+](=O)[O-])c(O)c([N+](=O)[O-])c1`, for which the inhibition was inactive: 1.76%.

For the compound `COc1ccccc1OP(C)(=O)Nc1c(C)n(C)n(-c2ccccc2)c1=O` (stereo not drawn), the inhibition was inactive: 5.52%.

Regarding `O=C(OCCCN1CCCC1)C(O)(c1ccccc1)C1CCCCC1` (stereo not drawn), the inhibition is inactive: 5.77%. Next, `CP(=O)(Oc1ccccc1)N1CCOC1=O` (stereo not drawn): inactive: 4.78%.

For `CCc1ccc(OP(C)(=O)Nc2cccnc2)cc1` (stereo not drawn), the inhibition was inactive: 1.9%. Next, `CCN(CC)CC(O)COC(=O)C(O)(c1ccccc1)C1CCCCC1` (stereo not drawn): inactive: 3.19%; `COc1ccc(OP(C)(=O)Nc2ccc(Br)cc2)cc1` (stereo not drawn): inactive: 0.33%; `CN(C)C(=O)c1c([N+](=O)[O-])cc([N+](=O)[O-])cc1[N+](=O)[O-]`: inactive: 7.49%. As to `CC(C)(C)c1ccc(OP(C)(=O)O)cc1`, the inhibition is inactive: -1.33%. `COc1ccccc1OP(C)(=O)Nc1ccccc1Br` (stereo not drawn): the inhibition was inactive: 3.72%.

Regarding `CP(=O)(Nc1ccc(Cl)cc1)Oc1ccc(F)cc1` (stereo not drawn), the inhibition is inactive: -0.31%.

As for `CCc1ccc(OP(C)(=O)N2CCN(c3ccc([N+](=O)[O-])cc3)CC2)cc1` (stereo not drawn), the inhibition is inactive: 2.76%. As to `CP(=O)(NC(=O)Nc1ccccc1)Oc1ccccc1` (stereo not drawn), the inhibition is inactive: -1.41%. Next, `Cc1cc(C)cc(OP(C)(=O)Nc2ccc(SC(F)(F)F)cc2)c1` (stereo not drawn): inactive: -0.18%; `CP(=O)(Nc1ccc(SC(F)(F)F)cc1)Oc1ccc(Cl)cc1` (stereo not drawn): inactive: 3.72%; `Cc1cccc(C)c1OP(C)(=O)Nc1ccc(SC(F)(F)F)cc1` (stereo not drawn): inactive: 3.69%. Take `CP(=O)(Oc1ccccc1)OC(c1ccccc1)C(F)(F)F` (stereo not drawn): the inhibition is inactive: 9.97%. Next, `CP(=O)(Nc1ccccn1)Oc1ccc(Cl)cc1` (stereo not drawn): inactive: 1.27%; `O=[N+]([O-])c1cc([N+](=O)[O-])c(O)c([N+](=O)[O-])c1.c1ccc(Oc2ccncc2)cc1`: inactive: 8.08%; `CCOC(=O)c1ccc(NP(C)(=O)Oc2ccc(OC)cc2)cc1` (stereo not drawn): inactive: -1.4%. For the compound `CCOP(C)(=S)SCC(=O)NC(C)C(=O)O` (stereo not drawn), the inhibition is inactive: 2.03%. Next, `CP(=O)(Nc1ccccc1Br)Oc1ccccc1` (stereo not drawn): inactive: -0.02%. Next, `COc1ccccc1OP(C)(=O)Nc1ccccc1` (stereo not drawn): inactive: 3.28%.

With `CP(=S)(Nn1cnnc1)Oc1ccccc1` (stereo not drawn), the inhibition is inactive: 2.64%.

In the case of `O=[N+]([O-])c1ccc2c(c1)C=Nc1ccccc1O2`, the inhibition was inactive: -3.98%. In the case of `CC(C)(C)c1ccc(OP(C)(=O)Nc2ccc(SC(F)(F)F)cc2)cc1` (stereo not drawn), the inhibition is inactive: -0.18%. Next, `Cc1cccc(C)c1OP(C)(N)=O` (stereo not drawn): inactive: 3.33%; `O=[N+]([O-])c1cc([N+](=O)[O-])c(Nc2cccnc2)c([N+](=O)[O-])c1`: inactive: 2%; `Cc1cc(C)cc(OP(C)(N)=O)c1` (stereo not drawn): inactive: -1.31%. Next, `COc1ccccc1OP(C)(=O)Nc1cc(Cl)ccc1C` (stereo not drawn): inactive: -2.51%. Next, `COc1ccc(OP(C)(=O)Nc2cccc(F)c2)cc1` (stereo not drawn): inactive: 10.8%; `COc1ccccc1OP(C)(=O)Nc1ccc(C)cc1` (stereo not drawn): inactive: -0.07%. Regarding `Cc1ccc(NP(C)(=O)Oc2ccccc2)c(C)c1` (stereo not drawn), the inhibition was inactive: 3.06%. For the compound `CCOC(=O)c1ccc(NP(C)(=O)Oc2ccccc2)cc1` (stereo not drawn), the inhibition was inactive: 1.79%.

With `CCN(CC)CCCOC(=O)C(O)(c1ccccc1)c1ccccc1`, the inhibition was inactive: 6.1%. Turning to `CCOC(=O)c1ccc(NP(C)(=O)Oc2cc(C)cc(C)c2)cc1` (stereo not drawn), the inhibition was inactive: 4.73%. Next, `Cc1cc(C)cc(OP(C)(=O)Nc2ccc(C)cc2C)c1` (stereo not drawn): inactive: -0.81%; `COc1ccccc1OP(C)(=O)Nc1cccc(Br)c1` (stereo not drawn): inactive: 1.64%.

`Cc1ccc(C)c(NP(C)(=O)Oc2ccccc2)c1` (stereo not drawn): the inhibition is inactive: 2.7%. Next, `CP(=O)(Nc1cccc(Br)c1)Oc1ccccc1` (stereo not drawn): inactive: -5.28%; `Cc1cc(C)cc(OP(C)(=O)Nc2ccccn2)c1` (stereo not drawn): inactive: 1.01%; `O=C(O)c1cccc(Nc2c([N+](=O)[O-])cc([N+](=O)[O-])cc2[N+](=O)[O-])c1`: inactive: 1.71%. Next, `CC1=NCCc2c1[nH]c1ccccc21.O=[N+]([O-])c1cc([N+](=O)[O-])c(O)c([N+](=O)[O-])c1`: inactive: -9.87%. `O=[N+]([O-])c1cc([N+](=O)[O-])c(Nc2nnnn2CCO)c([N+](=O)[O-])c1`: the inhibition is inactive: -2.15%.

For `CC1=C2N=C(C=C3N=C(C(C)=C4[N-][C@@](C)([C@@H]5N=C1[C@](C)(CCC(=O)NC[C@@H](C)OP(=O)([O-])O[C@H]1[C@@H](O)[C@@H](n6cnc7cc(C)c(C)cc76)O[C@@H]1CO)[C@H]5CC(N)=O)[C@@](C)(CC(N)=O)[C@@H]4CCC(N)=O)[C@@](C)(CC(N)=O)[C@@H]3CCC(N)=O)C(C)(C)[C@@H]2CCC(N)=O.[C-]#N.[Co+3]`, the inhibition was inactive: 3.83%. Next, `CCOC(=O)C(CC)C1=NC(C)(C)Cc2ccccc21.O=[N+]([O-])c1cc([N+](=O)[O-])c(O)c([N+](=O)[O-])c1` (stereo not drawn): inactive: -0.95%; `CP(=O)(Nc1ccc(SC(F)(F)F)cc1)Oc1ccccc1` (stereo not drawn): inactive: 0.68%; `CCCOc1ccc(NP(C)(=O)Oc2ccc(Cl)cc2)cc1` (stereo not drawn): inactive: 1.91%. As to `CN1CCCCC1COC(=O)C1(O)c2ccccc2CCc2ccccc21` (stereo not drawn), the inhibition is inactive: -0.14%. On to `COc1ccccc1OP(C)(=O)Nc1c(C)cccc1C` (stereo not drawn), for which the inhibition was inactive: -5.13%. Next, `O=[N+]([O-])c1cc([N+](=O)[O-])c(-n2nnc3ccccc32)c([N+](=O)[O-])c1`: inactive: -3.25%; `Cc1nc2ccc3ccccc3c2s1.O=[N+]([O-])c1cc([N+](=O)[O-])c(O)c([N+](=O)[O-])c1`: inactive: 1.08%; `O=[N+]([O-])c1cc([N+](=O)[O-])c(-c2cnn(-c3ccccc3)c2)c([N+](=O)[O-])c1`: inactive: 1.29%.

A word on the inhibition: it is the drop in the measured response relative to a control, in per cent.
